Patent US6077680A (The University of Florida, dated 2000)
Read-outs that look alike come from different tables or passages of the source.

Sequences of proteins named here, by UniProt entry; tags and fusion partners are left off. A change or cut given only in a name is not applied to a line headed by its entry.
UniProt P15388: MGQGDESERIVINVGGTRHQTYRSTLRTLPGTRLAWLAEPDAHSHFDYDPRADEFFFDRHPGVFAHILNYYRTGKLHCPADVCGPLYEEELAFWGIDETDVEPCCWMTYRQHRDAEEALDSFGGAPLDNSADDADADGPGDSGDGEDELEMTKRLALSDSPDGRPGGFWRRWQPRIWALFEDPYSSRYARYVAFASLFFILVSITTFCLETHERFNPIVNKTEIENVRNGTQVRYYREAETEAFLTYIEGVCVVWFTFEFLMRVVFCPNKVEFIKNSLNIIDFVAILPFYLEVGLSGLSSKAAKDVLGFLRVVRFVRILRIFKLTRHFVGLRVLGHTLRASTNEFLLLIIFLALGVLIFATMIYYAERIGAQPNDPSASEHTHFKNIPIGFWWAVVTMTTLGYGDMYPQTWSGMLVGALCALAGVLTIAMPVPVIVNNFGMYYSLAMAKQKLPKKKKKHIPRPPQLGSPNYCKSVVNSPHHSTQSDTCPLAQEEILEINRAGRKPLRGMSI
UniProt P22460, whole entry: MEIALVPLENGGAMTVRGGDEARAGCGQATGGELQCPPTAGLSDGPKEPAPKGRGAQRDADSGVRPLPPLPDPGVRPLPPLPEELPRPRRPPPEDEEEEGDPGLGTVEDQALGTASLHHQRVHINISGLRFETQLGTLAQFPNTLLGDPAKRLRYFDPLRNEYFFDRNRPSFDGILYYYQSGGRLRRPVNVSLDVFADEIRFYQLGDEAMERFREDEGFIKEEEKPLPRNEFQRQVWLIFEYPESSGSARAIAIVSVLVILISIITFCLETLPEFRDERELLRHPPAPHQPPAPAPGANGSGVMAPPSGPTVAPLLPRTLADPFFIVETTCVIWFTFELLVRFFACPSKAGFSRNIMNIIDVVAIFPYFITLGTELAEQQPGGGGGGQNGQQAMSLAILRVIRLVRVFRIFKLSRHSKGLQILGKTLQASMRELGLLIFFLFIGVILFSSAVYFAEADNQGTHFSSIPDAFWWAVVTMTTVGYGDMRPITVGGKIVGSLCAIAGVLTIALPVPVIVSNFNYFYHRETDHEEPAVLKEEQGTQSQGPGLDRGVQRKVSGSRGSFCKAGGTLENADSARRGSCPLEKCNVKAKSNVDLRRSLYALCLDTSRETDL
UniProt P63142, whole entry: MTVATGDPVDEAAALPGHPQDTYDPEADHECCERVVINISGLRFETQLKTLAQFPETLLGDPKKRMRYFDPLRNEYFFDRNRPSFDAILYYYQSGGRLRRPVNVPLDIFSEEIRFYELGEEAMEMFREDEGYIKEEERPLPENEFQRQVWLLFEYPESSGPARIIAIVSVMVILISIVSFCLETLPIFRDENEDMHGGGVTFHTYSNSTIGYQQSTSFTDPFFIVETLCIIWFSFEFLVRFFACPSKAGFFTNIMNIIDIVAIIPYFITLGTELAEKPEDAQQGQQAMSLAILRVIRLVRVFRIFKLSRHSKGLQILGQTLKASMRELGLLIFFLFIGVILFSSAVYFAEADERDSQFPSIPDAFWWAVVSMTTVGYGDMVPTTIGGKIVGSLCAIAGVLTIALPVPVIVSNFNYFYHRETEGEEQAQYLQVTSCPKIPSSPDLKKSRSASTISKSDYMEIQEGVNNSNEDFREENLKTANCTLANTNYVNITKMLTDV

Experiments:
Kv3.1 = Kv3.1 (Mus musculus, UniProt P15388); assay: cell-based
Kv1.5 = Kv1.5 (Homo sapiens, UniProt P22460); assay: cell-based
Kv1.2 = Kv1.2 (Rattus norvegicus, UniProt P63142); assay: cell-based
IKCa (hKCa4) = IKCa (hKCa4) (Homo sapiens, UniProt O15554); assay: cell-based; details: Kd, small conductance calcium-activated potassium channel in T-cells

With `CC[C@H](C)[C@@H]1NC(=O)[C@@H](NC(=O)[C@H](CO)NC(=O)[C@@H](N)CCCNC(=N)N)CSSC[C@@H](C(=O)O)NC(=O)[C@H]([C@@H](C)O)NC(=O)CNC(=O)[C@@H]2CSSC[C@@H]3NC(=O)[C@H](CCC(N)=O)NC(=O)[C@H](Cc4ccccc4)NC(=O)[C@H](C)NC(=O)[C@H]([C@@H](C)O)NC(=O)[C@H](CSSC[C@H](NC(=O)[C@H](Cc4ccccc4)NC(=O)[C@H](CO)NC(=O)[C@H](CC(C)C)NC(=O)[C@H](CCCNC(=N)N)NC(=O)[C@H](Cc4ccc(O)cc4)NC(=O)[C@H](CN)NC(=O)[C@H](CCSC)NC(=O)[C@H](CO)NC(=O)[C@H](Cc4cnc[nH]4)NC(=O)[C@H](CCCCN)NC3=O)C(=O)N[C@@H](CCCNC(=N)N)C(=O)N[C@@H](CCCCN)C(=O)N[C@@H]([C@@H](C)O)C(=O)N2)NC(=O)[C@H](CCCNC(=N)N)NC(=O)[C@H](CO)NC(=O)[C@H](CCCCN)NC(=O)[C@@H]2CCCN2C(=O)[C@H]([C@@H](C)CC)NC(=O)[C@H]([C@@H](C)O)NC(=O)[C@H](CC(=O)O)NC1=O` [K22DAP] the “t1/2, degradation by trypsin” value (trypsin, chymotrypsin; pH 6.5) was 30 min, the stability to chymotrypsin (trypsin, chymotrypsin; pH 6.5, 1 h) was “stable” and the Kd (Kv3.1) was greater than 100 nM. It also gave a Kd (Kv1.5) greater than 100 nM, a Kd (Kv1.2; Kv1.2 (Kd)) of 5 nM and a Kd (Kv1.2; read-out: Kv1.2 (Kd)) of 39 nM. The Kd (IKCa (hKCa4)) was 10 nM.
